# In ChEMBL document CHEMBL1139380, “Edaravone derivatives containing NO-donor functions” (J Med Chem, 2009):
# Tested on: Liver microsomes
# Test: Antioxidant activity against […]/ascorbate-induced lipid peroxidation in Wistar rat liver microsomal membrane at 05 to 15 uM by TBARS assay
# Type: functional
# Conditions: Microsome
smiles,measurement,value
COCCCCC(CO[N+](=O)[O-])O[N+](=O)[O-] (stereo unspecified),Activity,inactive

# Activity calls are given as the source filed them. The rule behind the calls is not given here.
